In ChEMBL document CHEMBL5036335, “Functional Characterization of the Nemertide α Family of Peptide Toxins” (J Nat Prod, 2021):

Key:
[1] = Toxicity in Artemia salina assessed as mortality incubated for 24 hrs in dark by microwell assay; type: organism-based
How it was run: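 Nauplii hatched from cysts in aerated artificial seawater (33 g/L), harvested at 24 h, RT. Peptide at 0.003–300 μM in water, in duplicate wells with water control, plus 10–15 nauplii in salt water. Dead and immobilized nauplii counted under a microscope, then the rest killed with MeOH and all counted. % dead or immobilized per well; EC50 by nonlinear regression.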

[2] = target: Sodium channel protein type 1 subunit alpha (Homo sapiens, UniProt P35498); experiment: Modulator activity at human Nav1.1 expressed in Xenopus laevis oocytes assessed as elicitation in sodium current measured after 1 to 4 days by two-electrode voltage clamp assay; type: cell-based, Oocyte
How it was run: (§1)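 Channel cRNA, with auxiliary subunits rβ1, hβ1 or TipE, transcribed from linearized plasmids; 50 nL of 1 ng/nL injected into stage V–VI X. laevis oocytes, kept in 96 mM NaCl, 2 mM KCl, 1.8 mM CaCl2, 2 mM MgCl2, 5 mM HEPES pH 7.4 with gentamycin. Two-electrode voltage clamp at 18–22 °C in same bath solution; 3 M KCl electrodes of 0.8–1.5 MΩ; currents filtered at 1 kHz, sampled at 20 kHz. EC50 from Hill equation fit.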

[3] = target: Sodium channel protein type 2 subunit alpha (Rattus norvegicus, UniProt P04775); experiment: Modulator activity at rat Nav1.2 expressed in Xenopus laevis oocytes assessed as elicitation in sodium current measured after 1 to 4 days by two-electrode voltage clamp assay; type: cell-based, Oocyte; how it was run: as §1
[4] = target: Sodium channel protein type 3 subunit alpha (Rattus norvegicus, UniProt P08104); experiment: Modulator activity at rat Nav1.3 expressed in Xenopus laevis oocytes assessed as elicitation in sodium current measured after 1 to 4 days by two-electrode voltage clamp assay; type: cell-based, Oocyte; how it was run: as §1
[5] = target: Sodium channel protein type 4 subunit alpha (Rattus norvegicus, UniProt P15390); experiment: Modulator activity at rat Nav1.4 expressed in Xenopus laevis oocytes assessed as elicitation in sodium current measured after 1 to 4 days by two-electrode voltage clamp assay; type: cell-based, Oocyte; how it was run: as §1
[6] = target: Sodium channel protein type 5 subunit alpha (Homo sapiens, UniProt Q14524); experiment: Modulator activity at human Nav1.5 expressed in Xenopus laevis oocytes assessed as elicitation in sodium current measured after 1 to 4 days by two-electrode voltage clamp assay; type: cell-based, Oocyte; how it was run: as §1
[7] = target: Sodium channel protein type 8 subunit alpha (Mus musculus, UniProt Q9WTU3); experiment: Modulator activity at mouse Nav1.6 expressed in Xenopus laevis oocytes assessed as elicitation in sodium current measured after 1 to 4 days by two-electrode voltage clamp assay; type: cell-based, Oocyte; how it was run: as §1
[8] = target: Sodium channel protein type 9 subunit alpha (Homo sapiens, UniProt Q15858); experiment: Modulator activity at human Nav1.7 expressed in Xenopus laevis oocytes assessed as elicitation in sodium current measured after 1 to 4 days by two-electrode voltage clamp assay; type: cell-based, Oocyte; how it was run: as §1
[9] = target: Sodium channel protein type 10 subunit alpha (Rattus norvegicus, UniProt Q62968); experiment: Modulator activity at rat Nav1.8 expressed in Xenopus laevis oocytes assessed as elicitation in sodium current measured after 1 to 4 days by two-electrode voltage clamp assay; type: cell-based; conditions: oocyte
How it was run: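 Channel cRNA transcribed from linearized plasmid; 50 nL at 1 ng/nL injected into stage V–VI oocytes. Oocytes held in 96 mM NaCl, 2 mM KCl, 1.8 mM CaCl2, 2 mM MgCl2, 5 mM HEPES pH 7.4 with gentamycin. TEVC at 18–22 °C in the same solution, electrodes 3 M KCl, 0.8–1.5 MΩ. Currents filtered 1 kHz, sampled 20 kHz. EC50 from Hill equation fit.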

[10] = Modulator activity at german cockroach Nav1 expressed in Xenopus laevis oocytes assessed as elicitation in sodium current measured after 1 to 4 days by two-electrode voltage clamp assay; type: cell-based; conditions: Blattella germanica, Oocyte; how it was run: as §1

With `CC[C@H](C)[C@@H]1NC(=O)[C@@H](NC(=O)CN)CSSC[C@@H]2NC(=O)[C@@H]3CSSC[C@@H](C(=O)N[C@@H](CC(N)=O)C(=O)N4C[C@@H](O)C[C@H]4C(=O)N4C[C@@H](O)C[C@H]4C(=O)N[C@@H](CC(N)=O)C(=O)N[C@@H](CCC(N)=O)C(=O)O)NC(=O)[C@H](CCCCN)NC(=O)[C@H](Cc4ccccc4)NC(=O)[C@H](CC(N)=O)NC(=O)[C@H](Cc4c[nH]c5ccccc45)NC(=O)CNC(=O)[C@H](CSSC[C@H](NC(=O)[C@H](Cc4ccccc4)NC(=O)[C@H](CO)NC(=O)CNC(=O)[C@H]([C@@H](C)O)NC(=O)[C@H](C)NC1=O)C(=O)N[C@@H]([C@@H](C)O)C(=O)N[C@@H](CC(C)C)C(=O)N[C@@H](CO)C(=O)N[C@@H](CCCCN)C(=O)NCC(=O)N3)NC(=O)[C@H](CC(N)=O)NC(=O)[C@H](CCCCN)NC(=O)[C@H]([C@@H](C)O)NC2=O` the EC50 at 24 h [1] was 300 nM, the EC50 [2] was 124 nM and the EC50 [3] was 360 nM. For the same compound, the EC50 [4] was 135 nM, the EC50 [5] was 146 nM and the EC50 [6] was 138 nM. For the same compound, the EC50 [7] was 240 nM, the EC50 [8] was 76.5 nM and the EC50 [9] was “Not Active”. The EC50 [10] was 8.6 nM.
